Data set [1] deals with Peptostreptococcus anaerobius. Description: Agar-dilution MIC (anaerobes). The conditions noted are these: Table 15; Ps. anaerobius 8. The data set is classed as cell-based. As to the method:
(§1) The MIC values were determined by the agar-dilution method, and are recorded in Table 15, which follows.

Data set [2] concerns Peptostreptococcus intermedius. Description: Agar-dilution MIC (anaerobes). The data set is classed as cell-based. As to the method:
as §1

For data set [3] the following is noted: mice, administered intraperitoneally.

By MIC is commonly meant the lowest concentration found to suppress growth. Broadly, the LD50 is the dose expected to kill half of the subjects tested. A low value points to a more toxic substance.

A41030 factor C: the MIC was found to be 0.5 µg/mL in data set [1]; 0.5 µg/mL in data set [2] (Table 14, Peptostreptococcus intermedius 1264); 0.5 µg/mL in data set [2] (Table 15, Ps. intermedius 1524). In data set [3], this substance showed an LD50 above 300 mg/kg. The acute toxicity in data set [3] is above 300 mg/kg.

For the origin of these results see patent US4559323A, “A41030 Antibiotics” (Eli Lilly and Company, priority 1984, dated 1985).
